Literature values, collected in US20090311303A1, “BIODEGRADABLE IMPLANTS FOR BONE FUSION AND COMPOSITIONS THEREFOR” (Queensland University of Technology, priority 2006, published 2009).

Details: background statement

For “BMP-2: growth factor, bone morphogenetic protein-2”, the “rapid inactivation in vivo after” value is listed as 20 to 30 min.
